The values that follow are results of earlier work, collected in publication PMC11111636 (EJNMMI Radiopharmacy and Chemistry, 2024).

Sequences of proteins named here, by UniProt entry; tags and fusion partners are left off. A change or cut given only in a name is not applied to a line headed by its entry.
UniProt P30874: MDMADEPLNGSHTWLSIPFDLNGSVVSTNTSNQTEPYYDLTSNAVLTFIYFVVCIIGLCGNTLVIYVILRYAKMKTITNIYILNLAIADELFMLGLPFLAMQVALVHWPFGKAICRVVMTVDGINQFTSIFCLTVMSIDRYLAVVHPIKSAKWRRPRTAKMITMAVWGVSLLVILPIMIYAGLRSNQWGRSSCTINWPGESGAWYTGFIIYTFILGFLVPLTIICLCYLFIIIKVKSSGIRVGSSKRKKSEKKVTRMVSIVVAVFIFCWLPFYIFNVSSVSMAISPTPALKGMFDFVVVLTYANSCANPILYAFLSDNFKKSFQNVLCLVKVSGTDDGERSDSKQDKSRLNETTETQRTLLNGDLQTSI

This data set deals with T1, SSTR2 (Homo sapiens, UniProt P30874).
T1 construct: expressed in transfected cells; host or cells: U2OS (human osteosarcoma) cells
More on the design: method as in Santini et al. To be noted: ref Santini et al.; cited from earlier work.

As usually defined, the IC50 is the midpoint of a concentration-inhibition curve. For Tyr^3-octreotate, the IC50 is 20.4 nM.
